The target of one test is T1, EGFR kinase (Homo sapiens, UniProt P00533).
T1 construct: Recombinant intracellular fragments of EGFR and erbB2; made in house; host or cells: baculovirus/Sf21 insect cells
Put plainly: Protein tyrosine kinase phosphorylation assay, Test (a): EGFR. The test is classed as biochemical. The protocol:
(§1) This test measures the ability of a test compound to inhibit the phosphorylation of a tyrosine containing polypeptide substrate by an enzyme selected from the EGFR kinase and erbB2 kinase.
(§2) Recombinant intracellular fragments of EGFR and erbB2 (accession numbers X00588 and X03363 respectively) were cloned and expressed in the baculovirus/Sf21 system. […]
(§3) Constitutive kinase activity of these recombinant proteins was determined by their ability to phosphorylate a synthetic peptide (made up of a random co-polymer of Glutamic Acid, Alanine and Tyrosine in the ratio of 6:3:1). […]
(§4) The immobilised phospho-peptide product of the reaction was detected by immunological methods. […] After further washing, HRP activity in each well of the plate was measured colorimetrically using 22′-Azino-di-[3-ethylbenzthiazoline sulfonate (6)] diammonium salt crystals (ABTS™ from Roche) as a substrate.
(§5) Kinase inhibition for a given compound was expressed as an IC50 value. […] The range of phosphorylation was calculated from the positive (vehicle plus ATP) and negative (vehicle minus ATP) control values.

Protein sequences, listed by entry. Tags and fused reporters are not part of them. Residues count along the entry.
UniProt P00533, 669-1210 limits assumed: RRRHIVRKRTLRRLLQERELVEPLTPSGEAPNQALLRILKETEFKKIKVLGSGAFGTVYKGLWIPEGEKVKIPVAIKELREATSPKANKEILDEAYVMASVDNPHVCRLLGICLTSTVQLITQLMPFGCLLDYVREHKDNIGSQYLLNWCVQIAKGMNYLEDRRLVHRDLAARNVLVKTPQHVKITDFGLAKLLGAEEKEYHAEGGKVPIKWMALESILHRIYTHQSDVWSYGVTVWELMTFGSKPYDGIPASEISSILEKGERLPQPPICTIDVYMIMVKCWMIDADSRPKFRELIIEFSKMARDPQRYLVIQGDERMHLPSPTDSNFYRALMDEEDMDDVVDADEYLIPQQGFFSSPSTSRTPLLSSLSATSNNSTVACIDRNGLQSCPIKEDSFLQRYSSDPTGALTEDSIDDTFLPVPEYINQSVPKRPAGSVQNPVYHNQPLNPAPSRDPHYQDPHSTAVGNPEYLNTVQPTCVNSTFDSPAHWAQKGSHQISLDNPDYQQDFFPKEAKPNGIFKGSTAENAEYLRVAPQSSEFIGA
UniProt P04626, 676-1255 limits assumed: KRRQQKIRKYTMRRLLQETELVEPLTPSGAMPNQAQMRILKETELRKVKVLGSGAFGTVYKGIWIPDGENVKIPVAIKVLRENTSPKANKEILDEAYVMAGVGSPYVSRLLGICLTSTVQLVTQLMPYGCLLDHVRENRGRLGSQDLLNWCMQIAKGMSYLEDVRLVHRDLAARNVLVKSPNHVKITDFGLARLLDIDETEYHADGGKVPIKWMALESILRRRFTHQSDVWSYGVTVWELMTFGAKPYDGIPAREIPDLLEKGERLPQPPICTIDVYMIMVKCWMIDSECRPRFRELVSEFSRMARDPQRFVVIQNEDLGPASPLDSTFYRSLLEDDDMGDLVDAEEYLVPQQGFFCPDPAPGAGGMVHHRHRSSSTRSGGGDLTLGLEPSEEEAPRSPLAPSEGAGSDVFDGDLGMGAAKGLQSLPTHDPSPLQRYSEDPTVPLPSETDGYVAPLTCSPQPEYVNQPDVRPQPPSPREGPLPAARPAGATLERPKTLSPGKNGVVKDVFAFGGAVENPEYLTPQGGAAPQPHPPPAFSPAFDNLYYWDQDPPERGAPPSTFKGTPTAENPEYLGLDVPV
UniProt P04626, 23-1255: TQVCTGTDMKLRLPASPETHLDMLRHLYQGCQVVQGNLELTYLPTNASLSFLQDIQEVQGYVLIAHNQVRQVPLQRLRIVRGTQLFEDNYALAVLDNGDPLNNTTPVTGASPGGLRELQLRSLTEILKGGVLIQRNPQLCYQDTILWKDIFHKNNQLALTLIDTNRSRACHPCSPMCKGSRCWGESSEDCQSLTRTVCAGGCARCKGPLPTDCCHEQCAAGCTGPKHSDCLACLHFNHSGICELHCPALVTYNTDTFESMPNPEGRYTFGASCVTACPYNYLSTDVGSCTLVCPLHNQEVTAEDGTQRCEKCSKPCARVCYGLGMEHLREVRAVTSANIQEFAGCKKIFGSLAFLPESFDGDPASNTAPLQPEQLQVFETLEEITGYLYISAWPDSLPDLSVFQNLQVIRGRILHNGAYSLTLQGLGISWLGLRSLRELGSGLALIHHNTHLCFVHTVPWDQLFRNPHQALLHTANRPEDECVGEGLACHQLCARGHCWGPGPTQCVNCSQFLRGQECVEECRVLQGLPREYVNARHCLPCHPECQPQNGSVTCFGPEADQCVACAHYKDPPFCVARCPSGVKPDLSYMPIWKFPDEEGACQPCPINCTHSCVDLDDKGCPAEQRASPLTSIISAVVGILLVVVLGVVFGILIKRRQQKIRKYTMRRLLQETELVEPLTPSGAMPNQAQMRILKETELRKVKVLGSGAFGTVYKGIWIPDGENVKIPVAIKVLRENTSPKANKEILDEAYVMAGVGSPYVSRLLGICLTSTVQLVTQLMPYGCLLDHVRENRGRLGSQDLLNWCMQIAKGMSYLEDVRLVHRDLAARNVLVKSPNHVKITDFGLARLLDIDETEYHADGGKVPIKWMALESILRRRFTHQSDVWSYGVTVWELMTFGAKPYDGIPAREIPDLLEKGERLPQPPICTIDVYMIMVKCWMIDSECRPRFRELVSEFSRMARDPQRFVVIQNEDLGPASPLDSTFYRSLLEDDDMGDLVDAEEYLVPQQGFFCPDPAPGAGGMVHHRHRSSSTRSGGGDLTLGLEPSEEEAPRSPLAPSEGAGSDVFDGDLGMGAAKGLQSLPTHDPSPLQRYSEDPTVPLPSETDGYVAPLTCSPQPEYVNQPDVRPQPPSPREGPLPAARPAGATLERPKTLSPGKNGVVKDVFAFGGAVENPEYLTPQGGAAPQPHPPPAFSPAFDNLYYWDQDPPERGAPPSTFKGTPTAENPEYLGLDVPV

Test [1] concerns the target T2, erbB2 (Homo sapiens, UniProt P04626). Put plainly: Protein tyrosine kinase phosphorylation assay, Test (a): erbB2. Set-up: Recombinant intracellular fragments of EGFR and erbB2; made in house; host or cells: baculovirus/Sf21 insect cells. The test is classed as biochemical. Here is the method: as §1, §2, §3, §4, §5
The target of test [2] is T2, erbB2. As to the kind of experiment: Clone 24 phospho-erbB2 cell assay, Test (e). The class given is cell-based. On the set-up: a cell line that overexpresses full length wild type erbB2 protein; expressed in transfected cells; host or cells: MCF7 (breast carcinoma) derived Clone 24 cells. Here is the method: The cells were resuspended in Growth Medium.
3 days later, Growth Medium was removed from the wells and replaced with 100 ul Assay Medium (phenol red free DM , 2 mM glutamine, 1.2 mg/ml G418) either with or without erbB inhibitor compound. Plates were returned to the incubator for 4 hours and then 20 μl of 20% formaldehyde solution in PBS was added to each well and the plate was left at room temperature for 30 minutes. This fixative solution was removed with a multichannel pipette, 100 μl of PBS was added to each well and then removed with a multichannel pipette and then 50 μl PBS was added to each well. Plates were then sealed and stored for up to 2 weeks at 4° C.
Immunostaining was performed at room temperature. […]
The Fluorescence signal is each well was measured using an Acumen Explorer Instrument (Acumen Bioscience Ltd.), a plate reader that can be used to rapidly quantitate features of images generated by laser-scanning. […] Fluorescence dose response data obtained with each compound was exported into a suitable software package (such as Origin) to perform curve fitting analysis. Inhibition of erbB2 phosphorylation was expressed as an IC50 value.

The IC50 is the concentration that inhibits the measured activity by half.

In the case of `C[C@H](CN(C)C)Oc1cccc2ncnc(Nc3ccc(OCc4cnccn4)c(Cl)c3)c12` [Example 24, N-[3-Chloro-4-(pyrazin-2-ylmethoxy)phenyl]-5-[(1R)-2-(dimethylamino)-1-methylethoxy]quinazolin-4-amine], the values for the IC50 at EGFR kinase, at erbB2 [1] and against erbB2 [2] were 64 nM, 2 nM and 1 nM, respectively.

(Values after US20070149546A1, “4-Anilino-quinazoline derivatives as antiproliferative agents” (priority 2003, published 2007).)
